## Yeast mating assay 2: variants of the scFv Ab-91

All variants were tested on one target, the spike HR2 peptide PDVDLGDISGINAS (SARS-CoV-2).

Parent scFv Ab-91: VL joined to VH by a 15-residue (Gly4Ser)3 linker. Changes lie in the heavy chain CDRs alone.
VL: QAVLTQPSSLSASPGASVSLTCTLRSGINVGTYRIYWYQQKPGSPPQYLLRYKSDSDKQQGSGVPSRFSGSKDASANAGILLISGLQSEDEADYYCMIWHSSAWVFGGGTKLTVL
VH: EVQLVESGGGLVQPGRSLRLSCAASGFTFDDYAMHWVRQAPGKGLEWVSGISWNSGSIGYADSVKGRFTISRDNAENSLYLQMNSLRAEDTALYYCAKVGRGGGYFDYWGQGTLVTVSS

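The parent was found by panning a naive human phage display library on the peptide. The library (AAYL51) carries one to three amino acid substitutions per variant, with no insertions or deletions. Affinity was read by AlphaSeq, a pooled yeast mating assay with surface-displayed partners. Pairs that bind mate more often; barcode pairs of the diploids are counted by sequencing. Scores were corrected for input abundance and mapped to Kd with protein pairs of known affinity run in the same pool. Mating was done three times.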

Substitutions are numbered in sequence along the VH above, starting at 1 (not Kabat).
Every variant below is changed at Y105 of the VH (sequential numbering).
The Kd shown is the geometric mean over detected replicates; a lower Kd is a better binder.
A pair that was not seen in any replicate is written "no signal"; this usually means weak binding, but a binder can also be missed.
Entries are sorted by rising average, undetected variants last.
Three control strains display no target. For library AAYL51, 21% of the pairings with them gave a signal, with a median of 34 µM and one signal in twenty below 1.8 µM, so weak values seen in few replicates may be background.

- D31L+Y105M+F106Q -> 4.5 nM (3 of 3 replicates)
- S52A+R101Q+Y105S -> 14 nM (3 of 3 replicates)
- T28Y+Y105M+Y108M -> 23 nM (3 of 3 replicates)
- I58A+A61M+Y105A -> 92 nM (3 of 3 replicates)
- G56A+Y105M -> 180 nM (3 of 3 replicates)
- G56L+S63N+Y105I -> 320 nM (3 of 3 replicates)
- G100I+Y105G -> 330 nM (1 of 3 replicates)
- D62K+Y105C -> 380 nM (1 of 3 replicates)
- D30K+G103C+Y105A -> 470 nM (3 of 3 replicates)
- D30N+Y105H -> 1.5 µM (2 of 3 replicates)
- F27T+G50I+Y105V -> 2.4 µM (1 of 3 replicates)
- W53C+Y105P -> 6.5 µM (2 of 3 replicates)
- S52M+S57E+Y105C -> 8.1 µM (1 of 3 replicates)
- N54I+Y105A -> 20 µM (2 of 3 replicates)
- D62C+S63V+Y105R -> 26 µM (1 of 3 replicates)
- S63F+G102L+Y105T -> 28 µM (3 of 3 replicates)
- G59R+D62S+Y105Q -> 51 µM (1 of 3 replicates)
- S55W+K65Q+Y105D -> 54 µM (1 of 3 replicates)
- A33E+D62I+Y105L -> 83 µM (2 of 3 replicates)
- H35V+N54W+Y105C -> 120 µM (1 of 3 replicates)
- S52I+R101V+Y105A -> 120 µM (3 of 3 replicates)
- G59I+S63C+Y105Q -> 170 µM (3 of 3 replicates)
- N54W+R101S+Y105F -> 190 µM (1 of 3 replicates)
- F29A+G104E+Y105S -> 200 µM (1 of 3 replicates)
- T28Q+G102L+Y105G -> 210 µM (1 of 3 replicates)
- S57K+R101V+Y105R -> 220 µM (1 of 3 replicates)
- A33D+G50A+Y105Q -> no signal (0 of 3 replicates)
- I58K+G104P+Y105D -> no signal (0 of 3 replicates)
- S57A+G59Y+Y105W -> no signal (0 of 3 replicates)
- W53G+K65L+Y105W -> no signal (0 of 3 replicates)
- Y60S+Y105S+F106D -> no signal (0 of 3 replicates)
- A33Q+Y105L+F106S -> no signal (0 of 3 replicates)
- W53Y+Y105R -> no signal (0 of 3 replicates)
- G59A+S63D+Y105R -> no signal (0 of 3 replicates)
- G102K+Y105V+F106I -> no signal (0 of 3 replicates)
- Y105H -> no signal (0 of 3 replicates)
- G103S+G104Y+Y105V -> no signal (0 of 3 replicates)
- N54S+I58N+Y105P -> no signal (0 of 3 replicates)
- K65G+V99C+Y105S -> no signal (0 of 3 replicates)

The closing 3 entries, repeated:

* G103S+G104Y+Y105V -> no signal (0 of 3 replicates)
* N54S+I58N+Y105P -> no signal (0 of 3 replicates)
* K65G+V99C+Y105S -> no signal (0 of 3 replicates)

For reference, the parent read 72 nM as the reference entry and 7.5 nM as a member of this library.

Values reported by Engelhart et al. 2022, doi:10.1038/s41597-022-01779-4 (FLAb copy).